Experimental data as given in ChEMBL document CHEMBL1157172, “Rational design, synthesis, and in vivo evaluation of the antileukemic activity of six new alkylating steroidal esters” (Bioorg Med Chem, 2008).

What was measured:
L1210 [1] = assay: Antitumor activity in BDF1 mouse L1210 cells assessed as mean survival days at 5 mg/kg/day, ip; details: route intraperitoneal
P388 [2] = assay: Antitumor activity in BDF1 mouse bearing P388 cells assessed as mean survival days at 5 mg/kg/day, ip; details: route intraperitoneal
L1210 [3] = assay: Increase in median life span in BDF1 mouse L1210 cells at 5 mg/kg/day, ip relative to corn oil; details: route intraperitoneal
P388 [4] = assay: Increase in median life span in BDF1 mouse bearing P388 cells at 5 mg/kg/day, ip relative to corn oil; details: route intraperitoneal
Mus musculus = assay: Acute toxicity in ip dosed BALB/c mouse after 30 days; assay type: organism-based; details: in vivo, 720 h

O=C(O)Cc1ccc(N(CCCl)CCCl)cc1
Survival (L1210 [1]): 12.4 days | Survival (P388 [2]): 10.7 days | Activity (L1210 [3]): 115% | Activity (P388 [4]): 113% | LD10 (Mus musculus): 10 mg/kg | LD50 (Mus musculus): 20 mg/kg

Cc1ccc(C(=O)O)cc1N(CCCl)CCCl
Survival (L1210 [1]): 13.9 days | Survival (P388 [2]): 13.7 days | Activity (L1210 [3]): 129% | Activity (P388 [4]): 144% | LD10 (Mus musculus): 10 mg/kg | LD50 (Mus musculus): 18 mg/kg
